Test system: R5 peptide

Protein Kinase A (PKA) (NEB P6000S)
proportion of phosphorylated R5 (LC-MS): could increase the proportion of phosphorylated R5 to 66% of the total R5 population
